From paper PMC5161585 (Nature, 2016) come the findings set out here.

The subject of the assay is Oprm1−/− mice. Put plainly: Hotplate assay in μOR knockout mice. The assay is classed as in vivo, mouse. The following applies: morphine 10 mg/kg, PZM21 20 mg/kg, 30 min.

Turning to `CN1CC[C@]23c4c5ccc(O)c4O[C@H]2[C@@H](O)C=C[C@H]3[C@H]1C5` [morphine, reference compound], the “analgesic response in hotplate assay in μOR knockout mice” value is given as “ablates all analgesic responses”.
